Experimental findings from paper PMC9706575 (Journal of Medicinal Chemistry, 2022) are described below.

Read-outs that look alike come from different tables or passages of the source.

The assay relates to MIA PaCa-2 tumor xenograft. Particulars: tail vein, days 1, 4, 8, 11, 15, 18.

On to “[PiperazAcAcid-(2-NH2-Phe)-L-A-(2-CF3-Bip)-PD-A-Chg-PFRPG]2-KGK-(Linker)-PTX [Targefrin-dimer-PTX]”, for which the “antitumor effect (tumor volume)” value was “significant antitumor effect compared to both the untreated group and the PTX-treated group” (dose equivalent to 2.5 mg/kg PTX (targefrin-PTX 10 mg/kg, targefrin-dimer-PTX 17 mg/kg)); “more effective than the PTX-treated group” (lower dose 10 mg/kg, equivalent to 1.5 mg/kg PTX).
